Laboratory results as given in US20250340552A1, “COMPOUNDS, COMPOSITIONS AND METHODS OF TREATING DISORDERS” (HOTSPOT THERAPEUTICS, INC., priority 2022, published 2025).

Amino acid sequences for entries named in this document (tags omitted).
UniProt Q13191, whole entry: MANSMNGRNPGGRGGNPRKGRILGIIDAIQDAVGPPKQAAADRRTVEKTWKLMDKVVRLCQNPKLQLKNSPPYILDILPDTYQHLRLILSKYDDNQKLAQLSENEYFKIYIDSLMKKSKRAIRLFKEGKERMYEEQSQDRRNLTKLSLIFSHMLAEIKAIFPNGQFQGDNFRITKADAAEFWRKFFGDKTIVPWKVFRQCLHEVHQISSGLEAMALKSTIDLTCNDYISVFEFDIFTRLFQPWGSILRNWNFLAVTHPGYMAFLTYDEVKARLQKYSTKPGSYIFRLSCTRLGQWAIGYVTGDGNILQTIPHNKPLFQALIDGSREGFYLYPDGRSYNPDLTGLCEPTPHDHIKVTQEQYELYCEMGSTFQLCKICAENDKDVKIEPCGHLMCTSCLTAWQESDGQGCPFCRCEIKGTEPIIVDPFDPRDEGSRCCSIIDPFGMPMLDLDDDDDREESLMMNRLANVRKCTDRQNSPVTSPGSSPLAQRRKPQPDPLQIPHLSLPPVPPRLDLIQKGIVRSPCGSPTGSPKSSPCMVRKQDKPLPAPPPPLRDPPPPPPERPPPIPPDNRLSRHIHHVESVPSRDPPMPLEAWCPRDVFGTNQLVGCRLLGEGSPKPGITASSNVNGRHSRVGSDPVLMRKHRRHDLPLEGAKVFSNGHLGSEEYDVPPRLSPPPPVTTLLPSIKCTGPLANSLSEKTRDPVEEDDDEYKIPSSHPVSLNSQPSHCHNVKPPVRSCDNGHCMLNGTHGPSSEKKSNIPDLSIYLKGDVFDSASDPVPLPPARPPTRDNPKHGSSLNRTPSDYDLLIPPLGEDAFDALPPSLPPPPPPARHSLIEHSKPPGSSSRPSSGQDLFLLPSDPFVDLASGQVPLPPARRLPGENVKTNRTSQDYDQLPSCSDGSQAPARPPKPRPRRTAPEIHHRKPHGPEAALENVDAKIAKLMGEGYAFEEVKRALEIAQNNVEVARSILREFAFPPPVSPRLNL

What follows are compounds tested against Cbl-B (Homo sapiens, UniProt Q13191) (assay: MSD-based assay for degradation of Cbl-B in THP-1 cells). Conditions: Jurkat cells seeded (heading: THP-1 cells), 24 hours incubation, MSD readout, tested form: formate.
Assay type: cell-based

SMILES	DC50 [nM]	Dmax
Cn1cnnc1[C@@H](c1cccc(-n2cc3c(C(F)(F)F)cc(CNCCN4CCC(CN5CCN(c6ccc7c(c6)CN(C6CCC(=O)NC6=O)C7=O)CC5)CC4)cn3c2=O)c1)C1CCC1 (stereo partly drawn)	> 10000	D (30 > D)
Cn1cnnc1[C@@H](c1cccc(-n2cc3c(C(F)(F)F)cc(CN4CCC(OCCN5CCC(CN6CCCN(c7ccc8c(c7)CN(C7CCC(=O)NC7=O)C8=O)CC6)CC5)CC4)cn3c2=O)c1)C1CCC1 (stereo partly drawn)	1000 to 10000	D (30 > D)
CO[C@H]1C[C@](c2cccc(-n3cc4c(C(F)(F)F)cc(CN5CCC(CN(C)C(=O)c6ccc(N7CCN(c8ccc9c(c8)CN([C@H]8CCC(=O)NC8=O)C9=O)CC7)cc6)CC5)cn4c3=O)c2)(c2nncn2C)C1	30 to 300	B (70 > B >= 50)
Cn1cnnc1CC1(c2cccc(N3Cc4c(cc(CN5CCC(OCCN6CCC(CN7CCN(c8ccc9c(c8)CN([C@@H]8CCC(=O)NC8=O)C9=O)CC7)CC6)CC5)cc4C(F)(F)F)C3=O)c2)COC1	300 to 1000	B (70 > B >= 50)
Cn1cnnc1CC1(c2cccc(-n3cc4c(C(F)(F)F)cc(CN5CCC(COCc6ccc(CN7CCN(c8cccc9c8C(=O)N(C8CCC(=O)NC8=O)C9=O)CC7)cc6)CC5)cn4c3=O)c2)COC1 (stereo not drawn)	> 10000	D (30 > D)
Cn1cnnc1[C@@H](c1cccc(-n2cc3c(C(F)(F)F)cc(COCCCN4CCC(CN5CCN(c6ccc7c(c6)CN([C@@H]6CCC(=O)NC6=O)C7=O)CC5)CC4)cn3c2=O)c1)C1CCC1	30 to 300	B (70 > B >= 50)
